Yeast mating assay B: variants of the scFv Ab-14

The measurements come from Li et al. 2023 (doi:10.1038/s41467-023-39022-2) through the FLAb antibody collection.

Antigen: PDVDLGDISGINAS, a 14-residue peptide of the SARS-CoV-2 spike HR2 region.

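Phage display of a naive human antibody library on the peptide gave the parent. This is the validation round: designs drawn from the data on random variants, tested in the same kind of assay. Their group label is 14L_GP_Gibbs (GP: Gaussian process model; Gibbs: Gibbs sampling; a sequence that several methods proposed may carry one label only). Affinity was read by AlphaSeq, a pooled yeast mating assay with surface-displayed partners. Pairs that bind mate more often; barcode pairs of the diploids are counted by sequencing. The ratio of observed to expected reads was calibrated, replicate by replicate, on BCL2-family standards whose Kd was known from biolayer interferometry. There are six technical replicates.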

Each scFv is VH, three GGGGS repeats, VL, as in the parent Ab-14, and differs from it in the CDRs of the light chain only.
VH: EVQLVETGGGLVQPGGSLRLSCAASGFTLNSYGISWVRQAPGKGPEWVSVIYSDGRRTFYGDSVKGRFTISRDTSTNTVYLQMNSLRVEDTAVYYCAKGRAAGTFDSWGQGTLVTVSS
VL: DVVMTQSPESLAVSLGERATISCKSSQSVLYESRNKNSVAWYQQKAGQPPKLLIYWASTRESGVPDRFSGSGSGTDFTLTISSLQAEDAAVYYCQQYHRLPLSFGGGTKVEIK

Changes read parent residue, position, new residue, counted from the first residue of the VL shown.
Scale: log10 of Kd in nM, estimated from mating counts; low values are strong binders.
Replicates are averaged; those with no signal do not enter the mean.
"n.d." marks a missing value. The strain was present, yet no cells mated with the target were sequenced in that replicate, which points to weak or no binding.
Empty control strains, which show no peptide, gave a signal in 4% of pairings with all light chain designs; the median was 2.64 and 95% of these signals were weaker than 1.59. No background was subtracted. The control count says in how many pairings with the empty strains this scFv gave a signal, with their mean in brackets.

changes | replicates, log10 nM | mean log10 Kd (nM) | control signals
S25C/S26E/V29W/L30G/N35V/S38N/W56N | 0.20 / 0.11 / 0.10 / 0.05 / -0.05 / 0.29 | 0.12 | 3 of 18 (3.35)
S25W/S28E/L30D/Y31L/K36D/W56N/T59C/S62D | 0.82 / 1.16 / 1.21 / 1.18 / 0.91 / 0.98 | 1.04 | 0 of 18
K24A/S25L/V29G/N35M/W56N/S62E | 0.54 / 0.32 / 0.21 / 0.39 / 0.28 / 0.56 | 0.38 | 0 of 18
S25Q/V29W/L30D/Y31G/W56H/T59K | 0.69 / 1.21 / 0.78 / 0.86 / 1.08 / 0.77 | 0.90 | 1 of 18 (3.05)
S25V/S26Q/V29F/K36V/N37M/W56N/S62E | -0.10 / 0.02 / -0.28 / -0.20 / 0.18 / 0.00 | -0.06 | 1 of 18 (2.03)
S25V/S28C/V29N/Y31G/N35M/W56H/T59Q | 0.11 / -0.10 / 0.21 / 0.01 / -0.14 / 0.30 | 0.07 | 2 of 18 (3.24)
S25Y/S28Q/V29N/S33Q/K36F/S38N/W56N/T59Y | 0.44 / 0.84 / 0.94 / 1.53 / 0.77 / 0.84 | 0.89 | 1 of 18 (1.72)
S25V/S26D/S28W/V29W/L30D/E32G/W56N/S62R | 0.18 / 0.18 / 0.35 / 0.49 / 0.64 / 0.65 | 0.42 | 0 of 18
S25Q/S26D/Q27F/V29C/L30P/Y31G/W56Q/E61M | 0.52 / 0.26 / 0.55 / 0.25 / 0.21 / 0.34 | 0.35 | 1 of 18 (2.53)
S25V/Q27G/V29Q/K36S/S38A/W56N/T59N/E61M | -0.07 / -0.19 / -0.28 / -0.40 / -0.42 / -0.14 | -0.25 | 1 of 18 (1.70)
S25V/Q27P/S28E/V29W/L30W/E32W/N37A/W56H | 2.40 / 2.23 / 1.77 / 2.53 / 2.00 / 2.49 | 2.24 | 2 of 18 (1.96)
S25L/S26E/S28G/Y31M/W56H/T59M | -0.19 / -0.04 / -0.08 / -0.28 / -0.26 / 0.09 | -0.13 | 3 of 18 (3.08)
S25I/S26A/V29Y/S33D/N37W/W56N/E61L | 0.23 / 0.11 / 0.10 / -0.14 / -0.01 / 0.09 | 0.06 | 1 of 18 (1.82)
S25L/L30E/E32Q/N35D/S38A/W56D/S58Q/E61L | 0.05 / -0.01 / -0.12 / -0.05 / -0.09 / 0.10 | -0.02 | 0 of 18
S25L/S26P/Q27F/V29C/L30E/W56M/E61C/S62V | 0.31 / 0.56 / 0.50 / 0.09 / 0.11 / 0.63 | 0.37 | 1 of 18 (1.94)
K24H/S25M/V29W/Y31M/K36S/W56E/E61L | 0.68 / 0.38 / 0.47 / 0.76 / 0.32 / 0.71 | 0.55 | 2 of 18 (1.64)
S25V/L30D/Y31G/E32Q/S33D/S38A/W56A/S62D | -0.14 / -0.23 / -0.32 / -0.30 / -0.19 / -0.21 | -0.23 | 0 of 18
S25L/L30M/Y31G/E32G/N37C/W56N/T59Q/S62Q | 0.35 / 0.27 / 0.19 / 0.27 / 0.08 / 0.23 | 0.23 | 2 of 18 (2.34)
S25F/S26E/Q27G/V29E/L30G/Y31M/W56N/T59H/E61M | 0.22 / 0.24 / 0.26 / 0.14 / 0.29 / 0.29 | 0.24 | 1 of 18 (3.46)
K24V/S25L/S26Q/Y31P/W56S/E61L | 0.59 / 0.30 / 0.35 / 0.37 / 0.46 / 0.61 | 0.45 | 1 of 18 (4.18)
S25M/L30P/K36L/S38N/W56D/A57G | -0.05 / -0.12 / -0.27 / -0.14 / -0.26 / -0.14 | -0.16 | 4 of 18 (2.64)
S25V/S28Q/V29G/E32G/S33D/K36A/W56N/S62D | 0.00 / -0.18 / -0.45 / -0.51 / -0.31 / -0.20 | -0.28 | 3 of 18 (3.15)
S25W/Q27M/S28G/L30M/Y31G/W56N | 0.16 / -0.10 / 0.05 / 0.03 / -0.09 / 0.15 | 0.03 | 1 of 18 (2.65)
S25F/S33E/N35M/W56D/T59Q/E61L | 2.10 / n.d. / n.d. / 0.35 / 2.52 / 2.11 | 1.77 | 0 of 18
S25L/S26D/S28W/L30E/Y31M/N35W/W56S/T59Q/E61N/S62E | 1.73 / 0.72 / 1.69 / 0.97 / 0.62 / 1.42 | 1.19 | 0 of 18
S25F/L30G/E32Q/W56N/S58Q/E61M/S62Q | 0.43 / 0.33 / 0.34 / 0.55 / 0.41 / 0.57 | 0.44 | 2 of 18 (2.76)
S25L/V29E/E32M/S33D/K36A/S38N/W56N/E61M | -0.21 / -0.45 / -0.49 / -0.53 / -0.42 / -0.38 | -0.41 | 0 of 18
S25L/S28L/V29M/W56N/E61M | -0.32 / -0.70 / -0.43 / -0.50 / -0.58 / -0.40 | -0.49 | 1 of 18 (1.50)
S25L/V29Q/K36S/N37K/W56D/E61L | -0.05 / 0.02 / -0.14 / -0.13 / 0.00 / 0.17 | -0.02 | 3 of 18 (2.49)
S25V/S26E/V29D/Y31L/N37Q/W56Q/E61M | 0.27 / -0.03 / -0.09 / -0.19 / 0.07 / 0.25 | 0.05 | 1 of 18 (2.22)
S25L/Q27Y/V29W/L30P/Y31G/W56D/S58N | 0.01 / -0.07 / -0.06 / -0.21 / -0.08 / 0.16 | -0.04 | 1 of 18 (4.23)
S25V/V29W/N35M/N37Q/W56N/T59E | 0.63 / -0.32 / 0.50 / 0.19 / 0.35 / 2.32 | 0.61 | 1 of 18 (1.85)
S25M/V29W/K36S/W56E/Q96D | -0.09 / -0.26 / -0.45 / -0.49 / -0.55 / -0.08 | -0.32 | 0 of 18
S25V/V29E/Y31G/E32Q/S33E/N37M/W56Q/S62K | 0.10 / -0.01 / -0.12 / -0.22 / -0.24 / 0.05 | -0.07 | 2 of 18 (3.90)
S25I/V29Y/Y31G/E32L/K36V/S38A/W56N | 0.58 / 0.56 / 0.18 / 0.38 / 0.23 / 0.47 | 0.40 | 0 of 18
S25L/L30M/Y31G/E32W/W56N | 0.16 / 0.07 / 0.16 / -0.02 / 0.02 / 0.00 | 0.07 | 1 of 18 (2.35)
S25L/Q27K/S28M/L30M/Y31M/E32G/W56S/T59Q/S62E | 0.03 / -0.02 / 0.12 / -0.13 / 0.09 / 0.33 | 0.07 | 1 of 18 (2.89)
S25L/S26Q/V29E/W56G/E61C/S62E | -0.07 / -0.33 / -0.20 / -0.34 / -0.28 / -0.15 | -0.23 | 1 of 18 (1.62)
S25V/V29H/S33E/S38N/W56N/T59D | -0.12 / -0.08 / -0.14 / -0.39 / -0.40 / -0.11 | -0.21 | 2 of 18 (2.92)
S25L/S28H/L30E/W56N/E61L | 0.48 / 0.45 / 0.02 / 0.17 / 0.14 / 0.30 | 0.26 | 1 of 18 (2.46)
S25F/S26Q/S33D/N35V/W56N/T59D/E61M | 0.26 / 0.13 / 0.11 / -0.01 / 0.09 / 0.38 | 0.16 | 0 of 18
S25F/V29E/K36Q/W56G/E61L/S62E | -0.13 / -0.09 / -0.10 / -0.29 / -0.24 / -0.28 | -0.19 | 0 of 18

The closing 3 entries, repeated:

changes | replicates, log10 nM | mean log10 Kd (nM) | control signals
S25L/S28H/L30E/W56N/E61L | 0.48 / 0.45 / 0.02 / 0.17 / 0.14 / 0.30 | 0.26 | 1 of 18 (2.46)
S25F/S26Q/S33D/N35V/W56N/T59D/E61M | 0.26 / 0.13 / 0.11 / -0.01 / 0.09 / 0.38 | 0.16 | 0 of 18
S25F/V29E/K36Q/W56G/E61L/S62E | -0.13 / -0.09 / -0.10 / -0.29 / -0.24 / -0.28 | -0.19 | 0 of 18

In the paper, a design with two or fewer of six values counts as a poor binder.
The range of this assay differs from that of the first round, and the authors advise against merging the two.